From US20070087988A1, “Hematopoietic progenitor kinase 1 for modulation of an immune response” (New York University, priority 2005, published 2007)

Assays:
T cells [1] = test: T cell proliferation on anti-CD3/anti-CD28 TCR crosslinking, 3H-thymidine; assay type: cell-based, mouse; conditions: addition of exogenous IL-2
Experimental: Naïve T cells (2×10^5) were seeded onto a 96-well plate and incubated with 1 μg/ml anti-CD3 and anti-CD28 or 10 μg/ml ConA for three days in the presence or absence of 100 pM PGE2 and then pulsed with 1 μCi/well ^3H thymidine (MP Biomedicals, Irvine, Calif.) for 18 hours before harvesting.
T cells were negatively selected using the Pan T cell isolation kit (Miltenyi Biotech Inc., Auburn, Calif.). Isolated T cells were 97% pure, as assessed by anti CD3-FITC staining. 2×10^5 Naïve T cells were seeded on a 96-well plate and incubated with various dilutions of anti-CD3 and 1 μg/ml of anti-CD28 for 72 hours in the presence or absence of 1 nM PGE2 and then pulsed with 1 μCi/well ^3H thymidine (MP Biomedicals, Irvine, Calif.) for 18 hours before harvest.

T cells [2] = test: Apoptosis of TCR-stimulated T cells, annexin V / 7AAD staining; assay type: cell-based, mouse; conditions: addition of exogenous IL-2
Excerpt: For measurement of apoptosis, HPK1^−/− and wild type T cells were stimulated as above, in the presence or absence of PGE2, and then stained with annexin V-PE and 7AAD.

IL-2: exogenous IL-2, T cell growth factor, added to wild type T cells
proliferative phenotype of wild type T cells (thymidine incorporation) (T cells [1]): only partially rescues
susceptibility of wild type T cells to apoptosis (T cells [2]): rescued
